Ab-14 heavy chain CDR variants: yeast mating affinities

From the AlphaSeq antibody data of Li et al. 2023 (doi:10.1038/s41467-023-39022-2), copy in the FLAb collection.

All variants were tested on one target, the spike HR2 peptide PDVDLGDISGINAS (SARS-CoV-2).

Parent scFv Ab-14: VH joined to VL by a 15-residue (Gly4Ser)3 linker. Changes lie in the heavy chain CDRs alone.
VH: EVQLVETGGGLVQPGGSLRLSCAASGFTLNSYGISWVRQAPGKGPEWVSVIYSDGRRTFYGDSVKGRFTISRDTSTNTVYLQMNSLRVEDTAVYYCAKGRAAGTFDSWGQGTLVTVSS
VL: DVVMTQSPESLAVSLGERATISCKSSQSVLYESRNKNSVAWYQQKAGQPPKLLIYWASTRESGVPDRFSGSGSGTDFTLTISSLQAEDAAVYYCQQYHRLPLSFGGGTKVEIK

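Phage display of a naive human antibody library on the peptide gave the parent. The variants were designed computationally from a first round of random CDR variants and then made and measured. Their group label is 14H_GPLM_Gibbs (GPLM: also part of the Gaussian process libraries; Gibbs: Gibbs sampling; a sequence that several methods proposed may carry one label only). The assay is AlphaSeq: two haploid yeast populations carry antibody and antigen on their surface. Mating (16 h, 30 °C) was followed by selection of diploids and sequencing of their barcodes. Each replicate has its own calibration line, from reference interactions of the BCL2 family. The assay was run in six technical replicates.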

Each variant is given by its three heavy chain CDRs, as the data file delimits them; those of the parent are GFTLNSYGIS, VIYSDGRRTFYGDSVK, GRAAGTFDS.
Affinities are written as log10 Kd with Kd in nM; a lower number is a better binder.
Averages over replicates are reported, and they cover detected replicates only.
An entry "nd" has no value in the source: the pair was not observed among the diploids in that replicate. This suggests poor binding but is not conclusive.
In the paper, a design with two or fewer of six values counts as a poor binder.

CDR-H1,CDR-H2,CDR-H3,log10 Kd (nM) by replicate,"mean, log10 nM",empty controls
GFELNSYGIS,VIYSDGRRTFYSDSVK,GRVAGTFDS,0.32 / -0.01 / -0.03 / -0.09 / 0.31 / 0.23,0.12,1/18 (4.45)
GFVLNSYGIS,VIYSDGRRTFYGDSVK,GKTAGTFDS,nd / nd / nd / nd / nd / nd,nd,0/18
GFDLNSYGIS,VIYSDGRRTFYGDSVK,GWEAGTFDS,0.82 / 0.90 / 0.65 / 1.04 / 0.89 / 1.34,0.94,1/18 (2.72)
GFELNSYGIS,VIYSDGRRTFYADSVK,GKLAGTFDS,-0.18 / -0.29 / -0.14 / 1.28 / -0.18 / nd,0.10,0/18
GFTLNSYGIS,VIYSDGRRTFYIDSVK,GKIAGTFDS,1.84 / 2.64 / 1.46 / 1.30 / 2.55 / nd,1.96,0/18
GFSLNSYGIS,VIYSDGKRTFYIDSVK,GRAAGTFDS,nd / nd / nd / -0.04 / nd / nd,-0.04,0/18
GFSLNSYGIS,VIYSDGRRTFYGDSVK,GWMAGTFDS,-0.12 / -0.12 / nd / 0.85 / 0.32 / 0.48,0.28,0/18
GFELNSYGIS,VIYSDGRRTFYADSVK,GKAAGTFDK,0.90 / 1.18 / 0.66 / 0.87 / 0.84 / 1.31,0.96,1/18 (3.69)
GFTLNSYGIS,VIYSDGRRTFYADSVK,GKAAGTFDV,0.93 / -0.12 / -0.01 / 0.79 / 0.35 / 0.34,0.38,0/18
GFNLNSYGIS,VIYSDGRRTFYDDSVK,GRQAGTFDS,0.82 / 0.48 / 0.30 / 0.15 / 0.56 / 0.14,0.41,0/18
GFDLNSYGIS,VIYSDGKRTFYGDSVK,GRNAGTFDS,-0.13 / 0.25 / 0.27 / 0.12 / 0.09 / 0.33,0.15,0/18
GFNLNSYGIS,VIYSDGRRTYYGDSVK,GRTAGTFDS,0.86 / 1.56 / 0.78 / 0.98 / 0.84 / 0.78,0.97,1/18 (2.81)
GFQLNEYGIS,VIYSDGRRTFYGDSVK,GRHAGTFDS,0.60 / 0.51 / 0.38 / 0.73 / 0.97 / 0.80,0.67,0/18
GFSLNEYGIS,VIYSDGRRTFYGDSVK,GRQAGTFDT,1.96 / 1.11 / 1.70 / 1.55 / 1.10 / nd,1.48,0/18
GFELNSYGIS,VIYSDGRRTAYQDSVK,GKAAGTFDS,0.56 / 0.16 / 0.49 / 0.08 / 0.18 / 0.83,0.38,0/18
GFTLNSYGIS,VIYSDGKRTFYGDSVK,GKTAGTFDS,0.94 / 0.98 / 0.75 / 0.57 / 0.88 / 0.91,0.84,0/18
GFELNSYGIS,VIYSDGRRTFYADSVK,GRTAGTFDT,0.00 / -0.19 / 0.01 / -0.39 / 0.01 / 0.40,-0.03,0/18
GFHLNSYGIS,VIYSDGRRTFYIDSVK,GKTAGTFDS,nd / 2.60 / 2.20 / 3.26 / 2.37 / 2.77,2.64,0/18
GFDLNSYGIS,VIYSDGRRTFYADSVK,GRMAGTFDT,0.95 / -0.37 / 0.04 / -0.71 / -0.11 / -0.04,-0.04,0/18
GFDLNSYGIS,VIYSDGMRTFYIDSVK,GRAAGTFDS,0.86 / 1.01 / 1.40 / 1.30 / 0.45 / 0.86,0.98,0/18
GFDLNSYGIS,VIYSDGKRTFYGDSVK,GRHAGTFDS,1.81 / 2.09 / nd / 1.92 / 2.53 / 2.48,2.17,0/18
GFQLNSYGIS,VIYSDGRRTFYADNVK,GRTAGTFDS,1.48 / 1.34 / 1.79 / 1.42 / 1.70 / 2.25,1.66,1/18 (2.21)
GFHLNSYGIS,VIYSDGRRTFYIDSVK,GKAAGTFDS,nd / nd / nd / nd / nd / 1.21,1.21,0/18
GFTLNSYGIS,VIYSDGRRTFYIDSVK,GKTAGTFDS,nd / nd / nd / nd / 2.69 / nd,2.69,0/18
GFDLNSYGIS,VIYSDGRRTAYGDSVK,GRNAGTFDS,0.60 / -0.10 / -0.34 / -0.46 / -0.10 / -0.21,-0.10,0/18
GFTLNSYGIS,VIYSDGRRTFYADDVK,GQEAGTFDS,0.37 / 0.19 / -0.24 / 0.08 / -0.38 / 0.29,0.05,0/18
GFTLNSYGIS,VIYSDGRRTFYGDSVK,GQTAGTFDA,nd / 0.83 / 1.49 / 0.79 / 1.10 / 0.86,1.01,1/18 (2.32)
GFELNSYGIS,VIYSDGRRTFYGDSVK,GVNAGTFDS,1.19 / 1.47 / 0.43 / 0.99 / 0.67 / 1.13,0.98,0/18
GFVLNSYGIS,VIYSDGRRTFYTDSVK,GEAAGTFDS,nd / nd / 1.34 / 0.75 / nd / nd,1.05,0/18
GFSLNSYGIS,VIYSDGRRTFYGDSVK,GNAAGTFDT,1.08 / 0.13 / -0.50 / 0.61 / 0.27 / 0.63,0.37,0/18
GFELNMYGIS,VIYSDGRRTFYIDSVK,GQAAGTFDS,nd / nd / nd / nd / 0.45 / nd,0.45,0/18
GFDLNSYGIS,VIYSDGRRTFYRDSVK,GRTAGTFDS,0.85 / 0.62 / 0.99 / 0.42 / 0.81 / 1.38,0.84,0/18
GFSLNSYGIS,VIYSDGRRTFYVDSVK,GQAAGTFDA,-0.31 / -0.25 / -0.29 / 0.49 / -0.33 / 0.32,-0.06,0/18

Extract of 2 entries:

CDR-H1,CDR-H2,CDR-H3,log10 Kd (nM) by replicate,"mean, log10 nM",empty controls
GFDLNSYGIS,VIYSDGKRTFYGDSVK,GRNAGTFDS,-0.13 / 0.25 / 0.27 / 0.12 / 0.09 / 0.33,0.15,0/18
GFTLNSYGIS,VIYSDGRRTFYADSVK,GKAAGTFDV,0.93 / -0.12 / -0.01 / 0.79 / 0.35 / 0.34,0.38,0/18

Background: pairings of all heavy chain designs with three empty control strains gave a value in 1% of cases (median 2.08, 5th percentile 0.84). Values in that range, when seen in few replicates, are hard to tell from nonspecific mating. The control count says in how many pairings with the empty strains this scFv gave a signal, with their mean in brackets.
Of ten entries with the parent sequence, four were seen in most replicates (averages 0.34 to 2.37), three in one and three in none, so single entries are noisy.
Values of this round are not directly comparable with the first-round values of the same sequences.